Test results reported in paper PMC10648875 (Antimicrobial Agents and Chemotherapy, 2023).

The chains behind the UniProt entries cited, without tags or fusion partners. Residues count along the entry.
UniProt Q9F663, 25-293 limits assumed: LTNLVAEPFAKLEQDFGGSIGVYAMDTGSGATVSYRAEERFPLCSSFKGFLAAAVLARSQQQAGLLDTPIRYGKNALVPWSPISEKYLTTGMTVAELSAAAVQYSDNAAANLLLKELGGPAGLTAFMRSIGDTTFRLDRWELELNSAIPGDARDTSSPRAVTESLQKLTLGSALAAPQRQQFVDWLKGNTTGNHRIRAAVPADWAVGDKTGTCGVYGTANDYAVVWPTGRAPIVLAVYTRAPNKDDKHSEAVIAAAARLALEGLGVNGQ
UniProt C7C422, 29-270 limits assumed: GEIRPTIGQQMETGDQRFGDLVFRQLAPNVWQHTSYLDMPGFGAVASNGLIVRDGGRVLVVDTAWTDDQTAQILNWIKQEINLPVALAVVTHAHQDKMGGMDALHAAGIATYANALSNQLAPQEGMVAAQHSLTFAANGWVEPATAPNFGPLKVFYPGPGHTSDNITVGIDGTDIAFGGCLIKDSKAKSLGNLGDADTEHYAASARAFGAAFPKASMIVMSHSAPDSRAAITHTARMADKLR

Assays:
KPC-2 = KPC-2 (Klebsiella pneumoniae, UniProt Q9F663); experiment: Ki app of β-lactamase inhibition, purified enzyme; assay type: biochemical
Experimental: (§1) The majority of purified β-lactamase enzymes used in the study were either expressed and purified internally ([35]) or obtained from Emerald Biostructures (Bainbridge Island, WA, USA). L1 enzyme was purified as described in reference ([36]).
(§2) Enzymes were mixed with BLIs at concentrations varying from 160 to 0.0027 µM in 50-mM Na-phosphate pH7.0, 0.1-mg/mL bovide serum albumin (BSA) (buffer A; 20-µM ZnCl2 was also added for all metalloenzymes) and incubated for 10 minutes at 37°C. Nitrocefin (50 µM) (10 µM for SHV-12) or 100 µM of imipenem (prewarmed at 37°C for 10 minutes) was added, and substrate cleavage profiles were recorded at 37°C at 490 nm every 10 seconds for 10 minutes or at 294 nm every 30 seconds for 1 hour for nitrocefin and imipenem, respectively. […] Ki app values (Ki for metalloenzymes) were calculated by the method of Waley ([37]).

[1] = molecular target: T1, NDM-1 in whole cells of KP1081 (functional OmpK36) (Klebsiella pneumoniae, UniProt C7C422); experiment: cell-based; parameters: species or system K. pneumoniae
T1 construct: endogenous in cells; host or cells: K. pneumoniae KP1081

NDM-1 (lysate of KP1081) = molecular target: T2, NDM-1 (lysate of KP1081) (Klebsiella pneumoniae, UniProt C7C422); experiment: biochemical; parameters: species or system K. pneumoniae
T2 construct: endogenous in cells; host or cells: K. pneumoniae KP1081

NDM-1 = NDM-1 (Klebsiella pneumoniae, UniProt C7C422); experiment: biochemical
Experimental: as §1, §2

Structure (SMILES)	Ki (KPC-2)	IC50 [1]	IC50 (NDM-1 (lysate of KP1081))	Ki (NDM-1)
O=C(NC1CCNCC1)[C@@H]1CC[C@@H]2CN1C(=O)N2OS(=O)(=O)O [Relebactam, relebactam]	40 ± 8 nM			
O=C(O)c1c(F)ccc2c1OB(O)[C@@H]1C[C@H]21 [Xeruborbactam, xeruborbactam]		16600 ± 1000 nM	770 ± 120 nM	7.5 ± 2.1 nM
